Data taken from paper PMC9681850, “Structural basis of synthetic agonist activation of the nuclear receptor REV-ERB” (Nature Communications, 2022).

Legend:
[1] = target: T1, full length human REV-ERBα (Homo sapiens, UniProt P20393); experiment: cell-based two-hybrid luciferase reporter assay (REV-ERBα-FL/GAL4-DBD + NCoR-Vp16, HEK UAS-luc cells); settings: HEK293 UAS-luc cells, 24 h; read-out: EC50, recruitment of NCoR-Vp16
T1 construct: expressed in transfected cells; host or cells: HEK293 cells with stably integrated GAL4-UAS luciferase reporter
Description: We next assessed the activity of STL1267 in a cell-based assay. We utilized a chimeric construct expressing full length human REV-ERBα (REV-ERBα-FL) fused to the DNA-binding domain (DBD) of yeast transcription factor GAL4. HEK293 cells stably expressing a GAL4 responsive luciferase reporter were co-transfected with REV-ERBα GAL4-DBD and NCoR-Vp16. This format of the assay essentially functions as a mammalian 2-hybrid assay and detects REV-ERB agonists as activators of transcription effectively enhancing the sensitivity of such an assay from the typical one hybrid system that detects enhancement of transcriptional repression. […] The maximal efficacy for recruitment of NCoR-VP16 was ~8-fold greater for STL1267 vs. SR9009.
The NCoR-Vp16 plasmid and REV-ERBα/β-FL GAL4-DBD wild-type or point mutation plasmids were incubated with the transfection agent, Lipofectamine 2000. GFP plasmid was also in the transfection mix to confirm transfection efficiency. HEK cells were plated in 10 cm dishes for western blot analysis, and HEK UAS-luc cells were plated in 96 well plates for luciferase assay analysis. Prior to cellular adherence, transfection mix was added. The cells and transfection mix were incubated at 37 °C in a humidified atmosphere of 5% CO2. […] Cells were incubated with the compound for 24 h, prior to luciferin addition and luminescence read out.

REV-ERBα LBD [2] = target: T2, REV-ERBα LBD (Homo sapiens, UniProt P20393); experiment: scintillation proximity radioligand binding assay with 3H-STL1267; set-up: made in house; settings: SPA, read-out: Ki, displacement of 3H-STL1267
T2 sequence (P20393 284-614 limits assumed): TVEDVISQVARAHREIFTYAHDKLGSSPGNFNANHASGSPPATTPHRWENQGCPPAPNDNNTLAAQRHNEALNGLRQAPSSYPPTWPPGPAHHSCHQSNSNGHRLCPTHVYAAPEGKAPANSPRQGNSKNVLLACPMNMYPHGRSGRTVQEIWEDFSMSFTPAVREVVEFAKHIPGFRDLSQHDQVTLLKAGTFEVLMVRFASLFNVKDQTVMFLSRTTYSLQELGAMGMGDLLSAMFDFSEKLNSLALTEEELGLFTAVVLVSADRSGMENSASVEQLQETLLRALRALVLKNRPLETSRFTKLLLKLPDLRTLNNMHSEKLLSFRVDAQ

REV-ERBα LBD [3] = target: T2, REV-ERBα LBD; experiment: FRET assay of NCoR ID1 CoRNR box recruitment; format: biochemical; set-up: agonist-dependent recruitment of NCoR ID1 CoRNR box to the REV-ERBα-LBD
Description: Our previous work on the structure activity relationship of GSK4112/SR9009 chemical scaffold (Fig. 1a) as well as that of others[18]–[20], led us to seek other scaffolds that would provide improved properties. […] We noted a recent patent that described a series of REV-ERB agonists (6-substituted[1,2,4]triazolo[4,3-b]pyridazines) in assays that detected the ability of small molecules to enhance the interaction of REV-ERBα with NCoR either in biochemical or cell-based assays. […] A FRET assay that detects agonist-dependent recruitment of NCoR ID1 CoRNR box to the REV-ERBα-LBD was utilized to compare the activity of STL1267 to SR9009 (Fig. 1c). We observed dose-dependent recruitment of NCoR peptide with increasing amounts of either STL1267 or SR9009. […] The high potency of STL1267 led us to consider the development of a radioligand binding assay that would detect direct binding of ligands to the LBD of REV-ERBα and REV-ERBβ.
A serial dilution of REV-ERB agonist, STL1267 or SR9009, was prepared in buffer (0.1% Triton, 5 mM DTT, PBS). Histidine tagged REV-ERBα/β complexed with heme was added to each well to a final concentration of 4 nM. […] The lanthascreen assay protocol (Dual PMT, excitation 340 nm, dual emission 495/520, Gain 110/110) was used to read the plate.

EC50 [1]: 4700 nM | Ki (REV-ERBα LBD [2]): 680 nM | EC50 (REV-ERBα LBD [3]): 1900 nM
Compound: CCOC(=O)N1CCC(CN(Cc2ccc(Cl)cc2)Cc2ccc([N+](=O)[O-])s2)C1 (stereo not drawn) [SR9009, reference compound]
